Patent publication US20230212319A1, “NOVEL ANTIGEN BINDING DOMAINS AND SYNTHETIC ANTIGEN RECEPTORS INCORPORATING THE SAME” (University of Southern California, priority 2020, published 2023)

Assays:
target cell lines = experiment: Assay for cytokine production (ELISA); assay type: cell-based; conditions: TRAC-targeted T cells, versus construct SEQ ID NO: 23329
Method: (B) Assay for cytokine production: The control vector- and SAR-expressing Jurkat-NFAT-GFP or T cells are cocultured with the target cell lines for 4-96 hours and supernatant examined for induction of cytokines (e.g., IL2, IFNγ, TNFα etc.) expresson using ELISA.

[1] = system: RAJI and L363 target cells; experiment: SAR expression and function in T cells with disrupted endogenous TCR chains or with SAR directed to the TRAC locus; assay type: cell-based; conditions: TRAC-targeted T cells, versus construct SEQ ID NO: 23329
Text: SARs with the backbones of TFPs comprising CD3ε, CD3γ, and CD3δ chains (designated as CD3ε/γ/δ TFPs) have poor expression and activity when expressed in αβ T cells that lack or have impaired functional endogenous or native TCRα or TCRβ chain polypeptide on their surface. For example, SARS represented by SEQ ID NO: 4110-4112 have impaired expression and activity (e.g., T cell activation, proliferation, cytokine production and cytotoxicity etc.) in αβ T cell in which the endogenous TRAC genomic locus has been disrupted. The disclosure provides a solution to this problem by re-expressing a TCRα constant chain (TRAC chain) polypeptide or a fragment thereof in T cells in which the expression of native full length TCRα chain polypeptide has been reduced or eliminated as described in WO2019067805, which is incorporated in its entirety by reference herein. In an exemplary embodiment, the expression and signaling activity of SARs based on CD3ε/γ/δ backbone can be restored in αβ T cells in which the expression of native TCRα chain is reduced or eliminated by expressing into such T cells a nucleic acid construct encoding an exogenous TCRα constant chain (TRAC chain) (e.g., SEQ ID NO (DNA): 1045 and SEQ ID NO (PRT): 11735) or a fragment thereof. […]

Herceptin = experiment: Flow cytometry: binding of epitope tagged SAR-expressing cells to Herceptin

| Molecule | cytokine (e.g., IL2 and TNFα) production (target cell lines) | activation [1] | proliferation [1] | binding to Herceptin (Herceptin) |
| --- | --- | --- | --- | --- |
| SEQ ID NO: 23330: targeting construct coexpressing a TCRα constant chain with a SAR on TFP backbone targeting BCMA and CD22, directed to the TRAC locus (protein) FKIPIEELEDRVFVNCNTSITWVEGTVGTLLSDITRLDLGKRILDPRGIYRCNGTDIYKDKESTVQVHYRMCQSCVELDPATVA | greater | greater | greater |  |
| SEQ ID NO: 22248: Herceptin mimotag tagged SAR (protein, Herceptin mimotag, Herceptin mimotag tagged SAR) MALPVTALLLPLALLLHAARPDIQMTQSPSSLSASVGDRVTITCKASDHINNWLAWYQQKPGQAPKLLIYGATTLETGVPSRFSGSGSGTDYTLTISSLQPEDFATYYCQQSWNTPWTFGQGTKLEIKRLEDLKNVFPPEVAVFEPSEAEISHTQKATLVCLATGFYPDHVELSWWVNGKEVHSGVCTDPQPLKEQPALNDSRYCLSSRLRVSATFWQNPRNHFRCQVQFYGLSENDEWTQDRAKPVTQIVSAEAWGRADCGFTSESYQQGVLSATILYEILLGKATLYAVLVSALVLMAMVKRKDSRGRAKRSGSGATNFSLLKQAGDVEENPGPTSATMDWIWRILFLVGAATGAHSGPQLGPYELWELSHGSGPLGIAGIFEQVQLQQPGAELVKPGASVKMSCKASGYAFSSYWINWMKQKPGQGLEWIGQIYPGDGDTNYNGKFKGRATLTADTSSSTAYMQLSSLTSEDSAVYFCARSITTVVGCAMDYWGQGTSVTVSSTRIQNPDPAVYQLRDSKSSDKSVCLFTDFDSQTNVSQSKDSDVYITDKCVLDMRSMDFKSNSAVAWSNKSDFACANAFNNSIIPEDTFFPSPESSCDVKLVEKSFETDTNLNFQNLSVIGFRILLLKVAGFNLLMTLRLWSSRAKRSGSGVKQTLNFDLLKLAGDVESNPGPSRGHMTEYKPTVRLATRDDVPRAVRTLAAAFADYPATRHTVDPDRHIERVTELQELFLTRVGLDIGKVWVADDGAAVAVWTTPESVEAGAVFAEIGPRMAELSGSRLAAQQQMEGLLAPHRPKEPAWFLATVGVSPDHQGKGLGSAVVLPGVEAAERAGVPAFLETSAPRNLPFYERLGFTVTADVEVPEGPRTWCMTRKPGA |  |  |  | showed binding to Herceptin |
